{"source": "patent US20140378378A1", "about": "“ERYTHROPOIETIN-DERIVED PEPTIDE AND USE THEREFOR” (priority 2011, published 2014)", "key": {"retinal neurocytes": {"tested_on": "retinal neurocytes", "conditions": "0.1 nM and 1 nM, 72 hours"}, "INS-1 β-cells": {"tested_on": "INS-1 β-cells", "assay": "Cell survival of INS-1 β-cells pre-treated with MKX-2 and then treated with H2O2, MTT assay", "format": "cell-based, rat", "procedure": "HIT-T15 cells (75 to 77 passages), which are from an insulin secretion cell line derived from a hamster, and INS-1 cells (18 to 20 passages), which are from an insulin secretion cell line derived from a rat, were used. A culture medium used for culturing HIT-T15 cells was 10% FBS, 100 units/ml of penicillin, and 100 µg/ml of streptomycin added to RPMI-1640. The culture medium used for culturing INS-1 cells was 10% FBS and 1 mM pyruvate, 10 mM HEPES, 50 mM 2-mercaptoethanol, 100 units/ml penicillin, 100 µg/ml of streptomycin mixed in RPMI-1640. Two β-cell lines were cultured in conditions in which 95% humidity was maintained at a temperature of 37° C. and included 5% CO2. When cell confluence reached about 70% to about 80%, the cells were washed with PBS and then treated with 0.05% trypsin-EDTA to subculture the cells.\nβ-cells were divided into wells in a 24-well plate at a concentration of 1×10^5 cells/well and the β-cells were cultured for 24 hours such that a cell confluence reached about 70% to about 80%. After 24 hours, a pre-existing medium was removed and then replaced with RPMI-1640 including 0.5% FBS, cultured for 6 hours, and then the β-cells were inhibited from proliferation and differentiation. MKX-2 was dissolved in DMSO and then was used to pre-treat the β-cells at concentrations of 0 ng/ml, 0.12 ng/ml, 1.2 ng/ml, 12 ng/ml, 60 ng/ml, and 120 ng/ml, 1 hour prior to a H2O2 treatment. A control group was treated with DMSO at 0.001% to be compared to the treatment group. 1 hour after an MKX-2 treatment, a H2O2 treatment was performed for about 2 hours or about 4 hours. […] An absorbance value was quantitatively analyzed to calculate a cell growth inhibition rate\nAs described above, HIT-T15 and INS-1 cells, which are β-cells of islets of Langerhans, were seeded at a density of 1×10^5 cells/well for each well in a 24-well plate, which were then stabilized, and a preexisting medium was carefully removed therefrom on the day of the experiment, including even a miniscule amount of medium that remained after the removal. Thereafter, RPMI-1640 medium including 0.5% FBS was used to culture the β-cells for 6 hours and stop proliferation and differentiation of the β-cells. An MKX-2 treatment group and a control group only including the same amount of DMSO, which was used to dissolve MKX-2, were prepared. Thereafter, the MKX-2 treatment group was treated with in amounts of 0 ng/ml, 0.12 ng/ml, 1.2 ng/ml, 12 ng/ml, 60 ng/ml, and 120 ng/ml and then the β-cells were treated with H2O2 (100 M) for about 2 hours to about 4 hours to put the β-cells under stress, and then an MTT assay was used to compare cell survival rates."}}}
{"smiles": "CC[C@H](C)[C@H](N)C(=O)N[C@@H](CO)C(=O)NCC(=O)N[C@@H](CC(C)C)C(=O)N[C@@H](CCCNC(=N)N)C(=O)N[C@@H](CO)C(=O)N[C@@H](CC(C)C)C(=O)N[C@H](C(=O)N[C@H](C(=O)N[C@@H](CC(C)C)C(=O)N[C@@H](CC(C)C)C(=O)N[C@@H](CCCNC(=N)N)C(=O)N[C@@H](C)C(=O)N[C@@H](CC(C)C)C(=O)NCC(=O)N[C@@H](C)C(=O)N[C@@H](CCC(N)=O)C(=O)N[C@@H](CCCCN)C(=O)N[C@@H](CCC(=O)O)C(=O)N[C@@H](CC(C)C)C(=O)N[C@@H](CCSC)C(=O)O)[C@@H](C)O)[C@@H](C)O", "note": "[MKX-2]", "values": [{"measurement": "increase of cell survival rate compared to 0 nM", "setting": "retinal neurocytes", "result": "without any statistical significance"}, {"measurement": "cell survival rate compared to non-MKX-2 treatment group", "setting": "INS-1 β-cells; 0.12 ng/ml and 1.2 ng/ml, H2O2 treatment for 2 hours or 4 hours", "result": "did not show a statistically significant difference"}, {"measurement": "cell survival rate", "setting": "INS-1 β-cells; 60 ng/ml, H2O2 treatment for 2 hours", "result": 86.4, "unit": "%+4.79"}, {"measurement": "cell survival rate", "setting": "INS-1 β-cells; 60 ng/ml, H2O2 treatment for 4 hours", "result": 64.39, "unit": "%+1.65"}, {"measurement": "cell survival rate", "setting": "INS-1 β-cells; 120 ng/ml, H2O2 treatment for 2 hours", "result": 95.0, "unit": "%+4.53"}, {"measurement": "cell survival rate", "setting": "INS-1 β-cells; 120 ng/ml, H2O2 treatment for 4 hours", "result": 83.60, "unit": "%+5.76"}]}
